Test results taken from ChEMBL document CHEMBL2390866, “Novel pyrimidoazepine analogs as serotonin 5-HT(2A) and 5-HT(2C) receptor ligands for the treatment of obesity” (Eur J Med Chem, 2013).

The chains behind the UniProt entries cited, without tags or fusion partners. Where a name states a change or a piece, a line headed by the entry shows the natural chain unless it says otherwise.
UniProt P28223, whole entry: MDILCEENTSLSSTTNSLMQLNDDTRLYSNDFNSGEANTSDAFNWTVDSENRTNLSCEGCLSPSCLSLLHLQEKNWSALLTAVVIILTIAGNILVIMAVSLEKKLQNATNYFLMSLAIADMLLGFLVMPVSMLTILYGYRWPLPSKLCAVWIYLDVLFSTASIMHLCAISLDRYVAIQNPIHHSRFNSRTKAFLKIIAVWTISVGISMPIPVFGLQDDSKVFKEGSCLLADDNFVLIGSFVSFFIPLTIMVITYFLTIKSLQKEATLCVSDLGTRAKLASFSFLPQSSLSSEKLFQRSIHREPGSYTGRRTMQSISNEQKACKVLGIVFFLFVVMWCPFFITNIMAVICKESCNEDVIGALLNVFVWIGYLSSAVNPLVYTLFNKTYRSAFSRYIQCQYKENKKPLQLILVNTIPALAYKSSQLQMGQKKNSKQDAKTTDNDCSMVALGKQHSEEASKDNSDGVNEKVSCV
UniProt P28335: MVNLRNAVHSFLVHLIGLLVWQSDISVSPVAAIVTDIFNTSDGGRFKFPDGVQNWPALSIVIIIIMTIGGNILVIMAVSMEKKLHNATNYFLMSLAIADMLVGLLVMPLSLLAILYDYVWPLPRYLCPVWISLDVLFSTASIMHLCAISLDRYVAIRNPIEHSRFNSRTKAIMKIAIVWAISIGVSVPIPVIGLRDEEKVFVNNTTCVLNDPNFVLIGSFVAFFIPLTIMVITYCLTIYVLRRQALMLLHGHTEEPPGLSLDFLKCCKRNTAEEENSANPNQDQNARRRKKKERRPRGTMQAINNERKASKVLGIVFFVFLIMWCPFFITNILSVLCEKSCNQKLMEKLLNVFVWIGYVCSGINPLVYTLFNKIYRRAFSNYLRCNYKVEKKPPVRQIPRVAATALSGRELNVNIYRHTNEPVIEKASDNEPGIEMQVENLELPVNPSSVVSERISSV

Experiments:
[1] = molecular target: 5-hydroxytryptamine receptor 2A (Homo sapiens, UniProt P28223); test: Agonist activity at serotonin-activated human recombinant 5HT-2A receptor expressed in HEK293 cells assessed as increase in intracellular calcium level after 5 mins measured for 1 min by fluorescence assay; type: functional, cell-based
[2] = molecular target: 5-hydroxytryptamine receptor 2C (Homo sapiens, UniProt P28335); test: Agonist activity at serotonin-activated human recombinant 5HT-2C receptor expressed in HEK293 cells assessed as increase in intracellular calcium level after 5 mins measured for 1 min by fluorescence assay; type: functional, cell-based

For `Clc1cccc(N2CCNCC2)c1` [CHLOROPHENYLPIPERAZINE], the EC50 [1] was 7.2 nM and the EC50 [2] was 8.1 nM.
